Assay results: patent publication US6762174B1 (priority 1998, dated 2004)
Read-outs that look alike come from different tables or passages of the source.

Columns and labels:
NS-1 myeloma = settings: published studies; cited from earlier work
[1] = tested on: MT-1 breast cancer xenograft
[2] = tested on: MT-1 breast cancer xenograft; remark: listed apart in the source
MOPC-315 myeloma [3] = experiment: MOPC-315 Myeloma study #1: β-alethine ip day 2 (1 × 10^6 tumor cells); settings: BT 30 femtograms/kg to 3 milligrams/kg on day 2
MOPC-315 myeloma [4] = experiment: MOPC-315 Myeloma study #2: β-alethine ip day 10 (1 × 10^6 tumor cells); settings: BT 30 femtograms/kg to 3 milligrams/kg on day 10
[5] = tested on: CHO cells containing a cloned gene for tissue plasminogen activator (tPA); experiment: Stimulation of tPA production from CHO cells (ELISA); settings: for Culture Cell Density / Picograms tPA per cell / Supernatant Concentration (tPA) / Supernatant Concentration relative to control / tPA per cell relative to control: 1 ρg/ml; for Culture Cell Density: cell numbers per milliliter

NCCC(=O)NCCSSCCNC(=O)CCN [BT, β-alethine]
effective in causing NS-1 inoculated animals to survive (NS-1 myeloma): 100%
T/C ratio (treated vs. control median relative tumor volume) ([1]; 3 injections of 30 ng/kg BT, 45 days): 29%
toxic effects (body weight, blood parameters) ([1]; BT 30 fg/kg to 30 mg/kg ip): did not produce any toxic effects
Thrombocytes d 46 ([2]; mouse, in vivo): 789 10^6/mL
effect on survival (MOPC-315 myeloma [3]): no effect on survival
effect on survival (MOPC-315 myeloma [4]): no effect on survival

O=P1(N(CCCl)CCCl)NCCCO1 (stereo not shown) [cp, cyclophosphamide]
Thrombocytes d 46 ([2]; Cp 100 mg/kg): 756 10^6/mL
Thrombocytes d 46 ([2]; Cp 200 mg/kg): 505 10^6/mL
Thrombocytes d 46 ([2]; Cp 300 mg/kg): 425 10^6/mL

N-carbobenzoxy-β-alanyl-taurine zinc salt
Culture Cell Density ([5]; listed as #1): 4.0 × 10^5
Culture Cell Density ([5]; listed as #2): 4.8 × 10^5
Culture Cell Density ([5]; listed as #3): 5.2 × 10^5
Picograms tPA per cell ([5]; listed as #1): 3.73 Picograms per cell
Supernatant Concentration (tPA) ([5]; listed as #1): 1,492.8 nanograms/ml
Supernatant Concentration relative to control ([5]; listed as #1): [3.5 × control]
tPA per cell relative to control ([5]; listed as #1): [1.9 × control]
Picograms tPA per cell ([5]; listed as #2): 2.89 Picograms per cell
Supernatant Concentration (tPA) ([5]; listed as #2): 1,389.4 nanograms/ml
Supernatant Concentration relative to control ([5]; listed as #2): [3.3 × control]
tPA per cell relative to control ([5]; listed as #2): [1.5 × control]
Picograms tPA per cell ([5]; listed as #3): 4.06 Picograms per cell
Supernatant Concentration (tPA) ([5]; listed as #3): 2,113.0 nanograms/ml
Supernatant Concentration relative to control ([5]; listed as #3): [5.0 × control]
tPA per cell relative to control ([5]; listed as #3): [2.1 × control]
per-cell production of tPA altered ([5]; vs control): about 2 fold
